Measured values published in US11058775B2, “Insulin dimer-incretin conjugates” (Merck Sharp & Dohme Corp., priority 2016, dated 2021).

The chains behind the UniProt entries cited, without tags or fusion partners. Residues count along the entry.
UniProt P47871, 26-477: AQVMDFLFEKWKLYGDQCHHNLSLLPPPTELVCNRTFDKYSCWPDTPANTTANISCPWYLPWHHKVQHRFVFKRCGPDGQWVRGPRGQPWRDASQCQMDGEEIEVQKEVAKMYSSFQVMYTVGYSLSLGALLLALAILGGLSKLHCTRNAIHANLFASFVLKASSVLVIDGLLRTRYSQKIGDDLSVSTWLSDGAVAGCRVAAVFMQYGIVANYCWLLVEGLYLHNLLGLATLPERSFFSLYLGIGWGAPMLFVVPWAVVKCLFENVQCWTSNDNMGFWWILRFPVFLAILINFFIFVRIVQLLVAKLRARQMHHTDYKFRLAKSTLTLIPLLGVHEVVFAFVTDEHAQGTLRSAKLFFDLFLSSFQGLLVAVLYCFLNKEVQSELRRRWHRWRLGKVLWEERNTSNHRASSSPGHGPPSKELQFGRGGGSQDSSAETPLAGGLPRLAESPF

Biological target: T1, human GCGR (Homo sapiens, UniProt P47871)
T1 construct: expressed in transfected cells; grown under Blasticidin and Hygromycin selection
Test: cAMP activity assay, cells expressing human GCGR
Assay type: cell-based
Conditions: ratio of hGCGR EC50 to hGLP1R EC50, Table 7

For `CC(C)C[C@H](NC(=O)[C@H](Cc1ccc(O)cc1)NC(=O)[C@H](CCCCN)NC(=O)[C@H](CO)NC(=O)[C@H](Cc1ccc(O)cc1)NC(=O)[C@H](CC(=O)O)NC(=O)[C@H](CO)NC(=O)[C@@H](NC(=O)[C@H](Cc1ccccc1)NC(=O)[C@@H](NC(=O)CNC(=O)[C@H](CCC(N)=O)NC(=O)[C@@H](CO)NC(=O)[C@@H](N)Cc1c[nH]cn1)[C@@H](C)O)[C@@H](C)O)C(=O)N[C@@H](CC(=O)O)C(=O)N[C@@H](CCC(=O)O)C(=O)N[C@@H](CCCNC(=N)N)C(=O)N[C@@H](C)C(=O)N[C@@H](C)C(=O)N[C@@H](CCC(N)=O)C(=O)N[C@@H](CC(=O)O)C(=O)N[C@@H](Cc1ccccc1)C(=O)N[C@H](C(=O)N[C@@H](CCCCNC(=O)COCCOCCNC(=O)COCCOCCNC(=O)CC[C@H](NC(=O)CCCCCCCCCCCCCCCN=[N+]=[N-])C(=O)O)C(=O)N[C@@H](Cc1c[nH]c2ccccc12)C(=O)N[C@@H](CC(C)C)C(=O)N[C@@H](CC(C)C)C(=O)N[C@@H](CC(=O)O)C(=O)N[C@H](C(N)=O)[C@@H](C)O)C(C)C` [PEP90], the GCGR/GLP1R ratio was 0.66.
